Measured values reported in ChEMBL document CHEMBL5233266, “β-Carboline as a Privileged Scaffold for Multitarget Strategies in Alzheimer's Disease Therapy” (J Med Chem, 2021).

Legend:
[1] = target: GABA-A receptor; anion channel; experiment: Displacement of [3H]flunitrazepam from GABAA (unknown origin ) receptor by radioligand binding assay; type: protein-complex assay, Homo sapiens
[2] = target: Gamma-aminobutyric acid receptor subunit alpha-6 (Homo sapiens, UniProt Q16445); experiment: Binding affinity to human recombinant GABAA alpha6 receptor assessed as inhibition constant incubated for 1 hrs by liquid scintillation counting analysis
[3] = target: T1, Gamma-aminobutyric acid receptor subunit alpha-3 (Homo sapiens, UniProt P34903); experiment: Binding affinity to human recombinant GABAA alpha3 receptor assessed as inhibition constant incubated for 1 hrs by liquid scintillation counting analysis
T1 sequence (P34903 whole entry): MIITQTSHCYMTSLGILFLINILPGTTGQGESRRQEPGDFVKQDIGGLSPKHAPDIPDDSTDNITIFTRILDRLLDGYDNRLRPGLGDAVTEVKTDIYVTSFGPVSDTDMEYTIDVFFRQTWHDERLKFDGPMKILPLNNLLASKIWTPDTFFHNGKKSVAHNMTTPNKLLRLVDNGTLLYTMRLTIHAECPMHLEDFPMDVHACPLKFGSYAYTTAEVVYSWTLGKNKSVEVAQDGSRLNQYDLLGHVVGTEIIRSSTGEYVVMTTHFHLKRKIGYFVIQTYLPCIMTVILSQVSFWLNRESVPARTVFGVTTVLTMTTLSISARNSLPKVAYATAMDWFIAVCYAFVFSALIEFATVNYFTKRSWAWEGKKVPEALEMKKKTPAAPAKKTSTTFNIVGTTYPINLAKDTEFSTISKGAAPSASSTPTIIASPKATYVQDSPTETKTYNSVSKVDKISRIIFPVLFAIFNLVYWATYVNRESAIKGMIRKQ

[4] = target: T2, Gamma-aminobutyric acid receptor subunit alpha-5 (Homo sapiens, UniProt P31644); experiment: Binding affinity to human recombinant GABAA alpha5 receptor assessed as inhibition constant incubated for 1 hrs by liquid scintillation counting analysis
T2 sequence (P31644 whole entry): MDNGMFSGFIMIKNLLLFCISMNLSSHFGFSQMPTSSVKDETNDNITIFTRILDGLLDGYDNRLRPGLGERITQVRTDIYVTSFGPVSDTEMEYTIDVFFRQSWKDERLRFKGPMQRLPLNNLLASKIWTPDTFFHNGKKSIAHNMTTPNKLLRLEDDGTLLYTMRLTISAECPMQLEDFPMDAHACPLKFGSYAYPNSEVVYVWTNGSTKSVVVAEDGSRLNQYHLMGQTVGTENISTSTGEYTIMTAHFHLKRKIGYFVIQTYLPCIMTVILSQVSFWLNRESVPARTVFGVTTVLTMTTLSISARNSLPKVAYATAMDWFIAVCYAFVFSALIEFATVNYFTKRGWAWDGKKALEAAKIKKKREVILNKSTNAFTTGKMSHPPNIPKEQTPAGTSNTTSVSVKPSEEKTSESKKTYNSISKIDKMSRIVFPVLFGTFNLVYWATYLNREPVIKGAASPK

[5] = target: T3, Gamma-aminobutyric acid receptor subunit alpha-2 (Homo sapiens, UniProt P47869); experiment: Binding affinity to human recombinant GABAA alpha2 receptor assessed as inhibition constant incubated for 1 hrs by liquid scintillation counting analysis
T3 sequence (P47869 whole entry): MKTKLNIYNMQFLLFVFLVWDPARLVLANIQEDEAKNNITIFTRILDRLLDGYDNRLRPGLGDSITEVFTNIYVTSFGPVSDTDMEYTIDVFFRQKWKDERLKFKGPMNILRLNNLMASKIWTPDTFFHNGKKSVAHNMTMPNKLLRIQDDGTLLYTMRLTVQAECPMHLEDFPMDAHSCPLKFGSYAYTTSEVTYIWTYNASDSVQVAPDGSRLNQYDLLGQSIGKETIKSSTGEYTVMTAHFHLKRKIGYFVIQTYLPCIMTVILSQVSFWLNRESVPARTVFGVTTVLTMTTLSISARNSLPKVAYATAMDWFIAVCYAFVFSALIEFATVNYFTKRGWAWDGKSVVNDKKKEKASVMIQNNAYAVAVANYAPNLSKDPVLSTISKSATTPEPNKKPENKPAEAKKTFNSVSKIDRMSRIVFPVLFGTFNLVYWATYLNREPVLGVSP

[6] = target: Gamma-aminobutyric acid receptor subunit alpha-4 (Homo sapiens, UniProt P48169); experiment: Binding affinity to human recombinant GABAA alpha4 receptor assessed as inhibition constant incubated for 1 hrs by liquid scintillation counting analysis

Work on CCOC(=O)c1cc2c(cn1)[nH]c1ccccc12 yielded an IC50 [1] of 1 nM, a Ki [2] of 2700 nM and a Ki [3] of 6 nM. For the same compound, the Ki [4] was 27 nM, the Ki [5] was 5 nM and the Ki [6] was 1000 nM.
